Laboratory results taken from patent US20190062394A1.

Columns and labels:
[1] = tested on: Single-chain (non-destabilized) IL-12 #30
[2] = tested on: Destabilized IL-12 #22
[3] = tested on: Single-chain (non-destabilized) IL-12 #29
[4] = tested on: Destabilized IL-12 #14

human thrombin (489 Units/mg; Millipore)
proteolytic digestion, 1 hour, reducing SDS-PAGE and anti-p40 Western blot [1]: completely digested with only 5 mU of thrombin when flanked with spacers
proteolytic digestion, 1 hour, reducing SDS-PAGE and anti-p40 Western blot [2]: completely digested with only 5 mU of thrombin when flanked with spacers
proteolytic digestion, 1 hour, reducing SDS-PAGE and anti-p40 Western blot [3]: completely digested with only 5 mU of thrombin when flanked with spacers
proteolytic digestion, 1 hour, reducing SDS-PAGE and anti-p40 Western blot [4]: completely digested with only 5 mU of thrombin when flanked with spacers
